Experimental data: patent publication US20130096067A1, “DROSOPHILA TUMOR STEM CELL MODEL AND USES THEREOF” (priority 2011, published 2013)

Tested on: Raf-1^gof intestinal tumors
Settings: in vivo
Further: test concentration or dose not given here.

With `CC1=C2C[C@H]3[C@@H](CC=C4C[C@@H](O)CC[C@@]43C)[C@@H]2CC[C@]12O[C@@H]1C[C@H](C)CN[C@H]1[C@H]2C` [cyclopamine] the “Fold (luciferase activity relative to DMSO controls)” value was 0.905 fold and the “Log2 (fold) of luciferase activity relative to DMSO controls” value was −0.144.
